Assay results reported in PMC8958505, “Discovery of Potential Neuroprotective Agents against Paclitaxel-Induced Peripheral Neuropathy” (Journal of Medicinal Chemistry, 2022).
Structures can show the parent of a compound that is named as a salt.

Columns and labels:
[1] = target: T1, hERG (Homo sapiens, UniProt Q12809); experiment: hERG patch-clamp assay (hERG-CHO, automated patch-clamp); assay type: cell-based; parameters: host or cells: CHO (hERG-CHO)
Description: CN016 were tested in the hERG (hERG-CHO, automated patch-clamp) assay and determined at Eurofins Panlabs (Missouri, USA). The experiment was accepted in accordance with Eurofins validation Standard Operating Procedure. The tested result […]
Table S3. Result of hERG patch-clamp assay of CN016

[2] = Pharmacokinetics after intravenous injection; assay type: in vivo; settings: male, mouse, plasma, 5 mg/kg IV, ICR mice, mean ± SD (n = 3)
Description: Male ICR mice weighed (29–33 g) were obtained from BioLASCO (Taiwan Co., Ltd., Ilan, Taiwan). The animal studies were performed according to NHRI institutional animal care and committee-approved procedures. Food and water were available ad libitum throughout the experiment. A single 5.0 mg/kg dose of CN016 was dissolved in normal saline and was separately administered to mice intravenously. The groups consisted of three mice for each time point. At times 0.03, 0.08, 0.25, 0.5, 1, 2, 4, 6, 8, 16, and 24 h after dosing, blood was collected from groups of three mice at each time point by cardiac puncture. Plasma was separated from blood and stored in a freezer (−80 °C) before LC/MS/MS analysis. In addition, pharmacokinetic analysis of CN016 following intraperitoneal administration (IP, 5 mg/kg) is provided in Figure S2 (Supporting Information).

[3] = system: Sodium Channel, Site 2; experiment: LeadProfilingScreen: Sodium Channel, Site 2; assay type: binding, rat; settings: 10 μM
[4] = target: T2, CYP 2C19 (Homo sapiens, UniProt P33261); experiment: Cytochrome P450 testing, CYP 2C19; assay type: in vitro ADME; settings: mephenytoin 4-hydroxylation; read-out: Concentration of inhibition (IC50), CYP 2C19
T2 construct: host or cells: baculovirus-infected insect cells (supersomes)
From the text: Cytochrome P450 testing of CN016
The effects of CN016 on the activity of six specific human liver cytochrome P450 isozymes (CYP 1A2, 2C9, 2C19, 2D6, 2E1, 3A4) expressed in baculovirus-infected insect cell supersomes were studied. The reactions used to measure the activity of these enzymes were phenacetin O-deethylation (1A2), diclofenac 4-hydroxylation (2C9), mephenytoin 4-hydroxylation (2C19), dextromethorphan O-demethylation (2D6), chlorzoxazone 6-hydroxylation (2E1) and testosterone 6-hydroxylation (3A4).
Furafylline, sulfaphenazole, tranylcypromine, quinidine, diethyldithiocarbamate and azamulin were used as reference inhibitors of these enzymes. Incubation mixtures containing no CN016 or reference inhibitors were used as controls. The tested result […]
Table S4. Result of Cytochrome P450 testing of CN016

[5] = system: paclitaxel-induced neuropathy in C57BL/6 mice; experiment: Tail immersion test (thermal sensation) in paclitaxel-induced neuropathy; assay type: in vivo, mouse
Description: (§1) Three behavioral models of paclitaxel-induced neuropathy were used to verify the neuroprotective effect of CN016. Namely, thermal and mechanical nociceptive reactions described below were evaluated by tail immersion and von Frey filament tests, respectively, and motor coordination was assessed with the rotarod performance test (Supporting Information, Figure S1A,B). To mimic the clinical therapeutic regimen, CN016 (5, 10 and 20 mg/kg) was administrated to 7-week-old female C57BL/6 mice by intraperitoneal injection (IP) 1 h prior to each injection of paclitaxel (4.5 mg/kg) on four alternate days (days 1, 3, 5, and 7). Each test’s basal level was recorded before treatment, and additional sessions of behavior tests were performed weekly for five weeks (Figure 4A).
(§2) The baseline of every neurological behavior test was measured in 6-week-old C57BL/6J female mice prior to treatment. […] Mechanical hyperalgesia was evaluated by using von Frey filament (#2390, IITC Inc., USA), thermal sensitivity was determined by the tail immersion assay (water temperature: 48–49 °C), and motor coordination was assessed by rotarod (#7750, Ugo Basile Biological Research Apparatus, Italy). After the first drug implantation, the body weight was recorded every 6 days throughout the entire experiment.

[6] = target: Glutamate, NMDA, Glycine (Rattus norvegicus, UniProt P35439); experiment: LeadProfilingScreen: Glutamate, NMDA, Glycine; assay type: binding
[7] = target: Neuropeptide Y Y2 (Homo sapiens, UniProt P49146); experiment: LeadProfilingScreen: Neuropeptide Y Y2; assay type: binding
[8] = target: T1, hERG; experiment: LeadProfilingScreen: Potassium Channel hERG; assay type: binding
[9] = target: Endothelin ETA (Homo sapiens, UniProt P25101); experiment: LeadProfilingScreen: Endothelin ETA; assay type: binding
[10] = target: Sigma σ1 (Homo sapiens, UniProt Q99720); experiment: LeadProfilingScreen: Sigma σ1; assay type: binding
[11] = system: Imidazoline I2, Central; experiment: LeadProfilingScreen: Imidazoline I2, Central; assay type: binding, rat; settings: 10 μM
[12] = target: Dopamine D1 (Homo sapiens, UniProt P21728); experiment: LeadProfilingScreen: Dopamine D1; assay type: binding
[13] = target: Histamine H2 (Homo sapiens, UniProt P25021); experiment: LeadProfilingScreen: Histamine H2; assay type: binding
[14] = target: Serotonin (5-Hydroxytryptamine) 5-HT3 (Homo sapiens, UniProt P46098); experiment: LeadProfilingScreen: Serotonin 5-HT3; assay type: binding
[15] = target: Muscarinic M1 (Homo sapiens, UniProt P11229); experiment: LeadProfilingScreen: Muscarinic M1; assay type: binding
[16] = target: Opiate µ (OP3, MOP) (Homo sapiens, UniProt P35372); experiment: LeadProfilingScreen: Opiate µ (OP3, MOP); assay type: binding
[17] = system: proinflammatory cytokines and chemokines; experiment: Systemic mouse cytokine and chemokine detection; assay type: in vivo; settings: pretreatment; day 14 after first paclitaxel injection
Description: Samples were obtained from C57BL/6J female mice before and 14 days after the first course of treatment. The blood samples were obtained from the submandibular vein and then centrifuged at 3000 rpm for 15 min at 4 °C to yield plasma. Mouse cytokines/chemokines were quantified using Magnetic Bead 32-Multiplex Panel (Millipore, MCYTMAG-70K-PX32). Statistical significance was analyzed using two-way ANOVA, with p < 0.05 considered significant.

[18] = target: Histamine H3 (Homo sapiens, UniProt Q9Y5N1); experiment: LeadProfilingScreen: Histamine H3; assay type: binding
[19] = system: C57BL/6 mice; experiment: Rotarod performance test (motor coordination); assay type: in vivo, mouse; settings: pretreated CN016 + paclitaxel
Description: as §1, §2

O=P(O)(O)CCN1CCC(Nc2cc(N3CCOCC3)nc(NCc3cn(CCCO)nn3)n2)CC1 [CN016, {2-[4-(2-{[1-(3-Hydroxy-propyl)-1H-[1,2,3]triazol-4-ylmethyl]-amino}-6-morpholin-4-yl-pyrimidin-4-ylamino)-piperidin-1-yl]-ethyl}-phosphonic Acid Hydrobromide Salt]
inhibition at 1 µM ([1]; human, CHO cells that express hERG (hERG-CHO), 1 μM): 6%
inhibition at 10 µM ([1]; human, CHO cells that express hERG (hERG-CHO), 10 μM): 19.1%
inhibition at 100 µM ([1]; human, CHO cells that express hERG (hERG-CHO), 100 μM): 32.9%
hERG liability ([1]; up to 100 μM, patch-clamp): not observed
AUC(0-t) at 24 h [2]: 6980 ± 1850 ng·h/mL
clearance at 24 h [2]: 12.8 ± 2.9 mL/min/kg
half-life at 24 h [2]: 12.8 ± 3.4 h
Vd at 24 h ([2]; read-out: Vss): 0.8 ± 0.5 L/kg
Inhibition (%), Sodium Channel, Site 2 [3]: -1%
IC50 [4]: > 100 µM
alleviation of thermal insensitivity (tail immersion) ([5]; CN016 5 mg/kg IP 1 h prior to paclitaxel 4.5 mg/kg): only moderately alleviated
alleviation of paclitaxel-induced thermhypesthesia (tail immersion) ([5]; CN016 10 or 20 mg/kg IP 1 h prior to paclitaxel 4.5 mg/kg, days 1, 3, 5, 7): able to alleviate
inhibition at 10 µM [6]: -5%
inhibition at 10 µM [7]: 10%
inhibition at 10 µM [8]: -3%
inhibition at 10 µM [9]: 15%
inhibition at 10 µM [10]: 0%
Inhibition (%), Imidazoline I2, Central [11]: -5%
inhibition at 10 µM [12]: -2%
inhibition at 10 µM [13]: 0%
inhibition at 10 µM [14]: -1%
inhibition at 10 µM [15]: 5%
inhibition at 10 µM [16]: 1%
proinflammatory cytokines and chemokines in plasma [17]: significant decrease
inhibition at 10 µM [18]: 2%
motor coordination (rotarod test) [19]: neither paclitaxel treatment nor pretreated CN016 affected motor coordination
